From patent US10975091B2, “Pyridine derivative” (Astellas Pharma Inc., priority 2014, dated 2021)
Structures can show the parent of a compound that is named as a salt.

Assays:
water-loaded rats = conditions: 3 mg/kg oral; water load 30 ml/kg 1 h after administration; urine volume 1 h after water loading; vs vehicle control group
[1] = system: continuously hydrated rats; conditions: groups with additional water loads; four hours after administration; FIG. 1

Row | Compound | Inhibition of urination (%) (water-loaded rats) | urine volume relative to the Vehicle group [1]
1 | CCCCSc1ccnc(C[C@](O)(C(=O)O)[C@@H](N)CC(C)C)c1 [Example 18, (2R,3S)-3-amino-2-{[4-(butylsulphanyl)pyridin-2-yl]methyl}-2-hydroxy-5-methylhexanoic acid] | 52% | 
2 | N[C@@H](CSCCC1CC1)[C@](O)(Cc1cc(OCCCC2CC2)ccn1)C(=O)O [Example 139] | 90% | 
3 | CCSC[C@H](N)[C@](O)(Cc1cc(O[C@H]2CC[C@H](C)CC2)ccn1)C(=O)O [Example 105, (2R,3R)-3-amino-4-(ethylsulfanyl)-2-hydroxy-2-({4-[(trans-4-methylcyclohexyl)oxy]pyridin-2-yl}methyl)butanoic acid] | 98% | 
4 | CC(C)C[C@H](N)[C@](O)(Cc1cc(OC2CCC3(CC2)CC3)ccn1)C(=O)O [Example 4, (2R,3S)-3-amino-2-hydroxy-5-methyl-2-{[4-(spiro[2.5]octa-6-yloxy)pyridin-2-yl]methyl}hexanoic acid] | 93% | 
5 | CC(C)C[C@H](N)[C@](O)(Cc1nccc2c1CC(CCC1CC1)O2)C(=O)O (some centres unmarked) [Example 83] | 80% | 
6 | C=CCCOC[C@H](N)[C@](O)(Cc1cc(O[C@H]2CC[C@H](C)CC2)ccn1)C(=O)O [Example 88] | 89% | 
7 | CC(C)C[C@H](N)[C@](O)(Cc1cc(O[C@H]2CC[C@H](C)CC2)ccn1)C(=O)O (relative stereo) [Example 6, (2R,3S)-3-amino-2-hydroxy-5-methyl-2-({4-[(trans-4-methylcyclohexyl)oxy]pyridin-2-yl}methyl)hexanoic acid dihydrochloride] | 96% | 
8 | C[C@H]1CC[C@H](Oc2ccnc(C[C@](O)(C(=O)O)[C@@H](N)COc3ccc(F)cn3)c2)CC1 [Example 84] | 64% | 
9 | N[C@@H](COCCC1CC1)[C@](O)(Cc1cc(OCCC2CC2)ccn1)C(=O)O [Example 110] | 57% | 
10 | C[C@H]1CC[C@H](Oc2ccnc(C[C@](O)(C(=O)O)[C@@H](N)CSCC3CC3)c2)CC1 [Example 5] | 90% | 
11 | CC(C)C[C@H](N)[C@](O)(Cc1cc(OC2CCCCCC2)ccn1)C(=O)O [Example 41] | 55% | 
12 | CCSC[C@H](N)[C@](O)(Cc1cc(OCCCC2CC2)ccn1)C(=O)O [Example 143] | 100% | 
13 | CC(C)C[C@H](N)[C@](O)(Cc1cc(OCCC2CC2)ccn1)C(=O)O [Example 1, (2R,3S)-3-amino-2-{[4-(2-cyclopropylethoxy)pyridin-2-yl]methyl}-2-hydroxy-5-methylhexanoic acid] | 88% | 
14 | CC(C)C[C@H](N)[C@](O)(Cc1cc(OCCC2(C)CC2)ccn1)C(=O)O [Example 28] | 92% | 
15 | CCCC[C@@H](C)Oc1ccnc(C[C@](O)(C(=O)O)[C@@H](N)CC(C)C)c1 [Example 55] | 91% | 
16 | CC(C)C[C@H](N)[C@](O)(Cc1cc(OC2CCCCC2)ccn1)C(=O)O.Cl.Cl [Example 3, (2R,3S)-3-amino-2-{[4-(cyclohexyloxy)pyridin-2-yl]methyl}-2-hydroxy-5-methylhexanoic acid dihydrochloride] | 59% | 
17 | N[C@@H](CCC1CCC1)[C@](O)(Cc1cc(OCCC2CC2)ccn1)C(=O)O [Example 9, (2R,3S)-3-amino-5-cyclobutyl-2-{[4-(2-cyclopropylethoxy)pyridin-2-yl]methyl}-2-hydroxypentanoic acid] | 82% | 
18 | CC(C)C[C@H](N)[C@](O)(Cc1cc(O[C@H]2CC[C@H](C)CC2)ccn1)C(=O)O (relative stereo) [EX-a] |  | approximately half amount of that of the Vehicle group
19 | CC(C)C[C@H](N)[C@](O)(Cc1cc(SCCC2CC2)ccn1)C(=O)O [Example 111] | 57% | 
20 | CC(C)C[C@H](N)[C@](O)(Cc1cc(S[C@H]2CC[C@H](C)CC2)ccn1)C(=O)O [Example 119] | 97% | 
21 | CC(C)C[C@H](N)[C@](O)(Cc1cc(O[C@H](C)Cc2ccccc2)ccn1)C(=O)O [Example 92] | 61% | 
22 | CC(C)C[C@H](N)[C@](O)(Cc1cc(OCCCC2CC2)ccn1)C(=O)O [Example 29] | 93% | 
23 | CC(C)C[C@H](N)[C@](O)(Cc1nccc2oc(CCC3CC3)cc12)C(=O)O [Example 20, (2R,3S)-3-amino-2-{[2-(2-cyclopropylethyl)furo[3,2-c]pyridin-4-yl]methyl}-2-hydroxy-5-methylhexanoic acid] | 94% | 
